The text below walks through data of US12691175B2, “Drug transdermal delivery system” (Xiamen University, priority 2019, dated 2026).

The conditions of this data set: porcine skin, 16 hours.

Like-named read-outs stand apart in the source and are kept apart here.

Consider FITC-Dextran-4K [FD-4K dextran], for which the transdermal delivery rate is, setting by setting: (low frequency sonophoresis alone) 1.3±0.5%; (low-frequency sonophoresis then sponge spicules of Haliclona sp. (2 mg, cSoSp)) 9.5±1.6%; (microneedle roller (Dermaroller 0.2 mm)) 0.5±0.1%; (microneedle roller and low-frequency sonophoresis) 3.4±0.2%; (sponge spicules of Haliclona sp. alone) 1.3±0.1%.
